Molecules are shown by their SMILES.

Sequences of proteins named here, by UniProt entry; tags and fusion partners are left off.
UniProt P30553, whole entry: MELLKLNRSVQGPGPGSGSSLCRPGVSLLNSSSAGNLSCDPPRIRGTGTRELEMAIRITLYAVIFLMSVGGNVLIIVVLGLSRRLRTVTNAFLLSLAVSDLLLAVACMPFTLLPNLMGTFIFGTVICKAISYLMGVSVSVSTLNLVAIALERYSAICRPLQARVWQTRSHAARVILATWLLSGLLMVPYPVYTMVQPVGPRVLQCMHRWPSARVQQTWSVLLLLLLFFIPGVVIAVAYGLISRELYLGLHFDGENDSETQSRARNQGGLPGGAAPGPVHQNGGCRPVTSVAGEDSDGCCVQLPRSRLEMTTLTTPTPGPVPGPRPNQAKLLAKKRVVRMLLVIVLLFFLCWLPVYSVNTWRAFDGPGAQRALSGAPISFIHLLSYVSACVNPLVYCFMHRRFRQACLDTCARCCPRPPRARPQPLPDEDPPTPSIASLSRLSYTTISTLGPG

This assay deals with gastrin (CCK2) receptors (Rattus norvegicus, UniProt P30553). Description: immature rat stomach assay, gastrin (CCK2) antagonist activity. The settings on record: pentagastrin dose-response curves, acid secretion.

Take `CC(C)(C)C(=O)CN1C(=O)N(CC(=O)Nc2ccccn2)N=C(C2CCCCC2)c2ccccc21`: the pKB rat stomach (tested form: HCl) is listed as 6.18 ± 0.29. In turn, `CC(C)(C)C(=O)CN1C(=O)N(CC(=O)Nc2cccc(SCc3nn[nH]n3)c2)N=C(C2CCCCC2)c2ccccc21` came in with a pKB rat stomach of 8.47 ± 0.31.

Source of the values: patent publication US20060003993A1, “Benzotriazepnes as gastrin and cholecystokinin receptor ligands” (James Black Foundation Limited, priority 2001, published 2006).
